# This is a selection; strong and weak results do not stand in their true shares. Some structures show a salt or complex split into parts, the way the source records it. Active and inactive are the calls of the source. Cut-off read from the data, not from the text of the source: active = response below about 60% or above about 140%; inactive = in between.
# Protein sequences, listed by entry. Tags and fused reporters are not part of them.
# UniProt P09471, whole entry: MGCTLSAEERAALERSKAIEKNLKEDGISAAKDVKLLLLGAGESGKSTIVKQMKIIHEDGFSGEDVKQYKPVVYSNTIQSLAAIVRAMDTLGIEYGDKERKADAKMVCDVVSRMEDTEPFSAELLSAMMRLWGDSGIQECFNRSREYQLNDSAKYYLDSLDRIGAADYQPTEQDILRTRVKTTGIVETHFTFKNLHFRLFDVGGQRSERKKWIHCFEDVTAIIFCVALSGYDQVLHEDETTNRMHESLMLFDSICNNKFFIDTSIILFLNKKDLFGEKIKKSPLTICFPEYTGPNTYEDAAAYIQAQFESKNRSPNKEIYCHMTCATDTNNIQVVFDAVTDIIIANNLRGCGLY
# Biological target: Guanine nucleotide-binding protein G(o) subunit alpha (Homo sapiens) (UniProt P09471)
# Experiment: RGS8-Galphao binding modulators, primary screen, biochemical, multiplexed bead flow cytometry (AID 1423);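 note: Galphao activated as the GDP aluminium fluoride complex binding bead-coupled RGS8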
# Conditions: at 10 µM, actives lie on both sides
row,SMILES,response (percent of control binding)
1,O=C(O)c1cccc(Nc2c([N+](=O)[O-])cc([N+](=O)[O-])cc2[N+](=O)[O-])c1,inactive: 101%
2,CC1=NCCc2c1[nH]c1ccccc21.O=[N+]([O-])c1cc([N+](=O)[O-])c(O)c([N+](=O)[O-])c1,inactive: 105%
3,COc1ccccc1OP(C)(=O)Nc1cccc(Br)c1 (configuration not stated),inactive: 100%
4,CCOC(=O)c1ccc(NP(C)(=O)Oc2cc(C)cc(C)c2)cc1 (configuration not stated),inactive: 105%
5,Cc1cc(C)cc(OP(C)(=O)Nc2ccc(C)cc2C)c1 (configuration not stated),inactive: 101%
6,Cc1ccc(C)c(NP(C)(=O)Oc2ccccc2)c1 (configuration not stated),inactive: 85.9%
7,Cc1cc(C)cc(OP(C)(=O)Nc2ccccn2)c1 (configuration not stated),inactive: 104%
8,CP(=O)(Nc1cccc(Br)c1)Oc1ccccc1 (configuration not stated),inactive: 101%
9,O=[N+]([O-])c1cc([N+](=O)[O-])c(-n2nnc3ccccc32)c([N+](=O)[O-])c1,inactive: 74.4%
10,Cc1nc2ccc3ccccc3c2s1.O=[N+]([O-])c1cc([N+](=O)[O-])c(O)c([N+](=O)[O-])c1,inactive: 100%
11,CCOC(=O)C(CC)C1=NC(C)(C)Cc2ccccc21.O=[N+]([O-])c1cc([N+](=O)[O-])c(O)c([N+](=O)[O-])c1 (configuration not stated),inactive: 97.8%
12,O=[N+]([O-])c1cc([N+](=O)[O-])c(Nc2nnnn2CCO)c([N+](=O)[O-])c1,inactive: 99.7%
13,CN1CCCCC1COC(=O)C1(O)c2ccccc2CCc2ccccc21 (configuration not stated),inactive: 102%
14,COc1ccccc1OP(C)(=O)Nc1c(C)cccc1C (configuration not stated),inactive: 101%
15,CCCOc1ccc(NP(C)(=O)Oc2ccc(Cl)cc2)cc1 (configuration not stated),inactive: 101%
16,CP(=O)(Nc1ccc(SC(F)(F)F)cc1)Oc1ccccc1 (configuration not stated),inactive: 99.4%
17,CP(=S)(Nn1cnnc1)Oc1ccccc1 (configuration not stated),inactive: 119%
18,CP(=O)(Nc1ccccc1Br)Oc1ccccc1 (configuration not stated),inactive: 113%
19,COc1ccccc1OP(C)(=O)Nc1ccccc1 (configuration not stated),inactive: 104%
20,CP(=O)(Oc1ccccc1)OC(c1ccccc1)C(F)(F)F (configuration not stated),inactive: 102%
21,CP(=O)(Nc1ccc(SC(F)(F)F)cc1)Oc1ccc(Cl)cc1 (configuration not stated),inactive: 100%

row,SMILES,response (percent of control binding)
1,Cc1cccc(C)c1OP(C)(=O)Nc1ccc(SC(F)(F)F)cc1 (configuration not stated),inactive: 107%
2,Cc1cc(C)cc(OP(C)(=O)Nc2ccc(SC(F)(F)F)cc2)c1 (configuration not stated),inactive: 103%
3,CP(=O)(NC(=O)Nc1ccccc1)Oc1ccccc1 (configuration not stated),inactive: 98%
4,CCc1ccc(OP(C)(=O)N2CCN(c3ccc([N+](=O)[O-])cc3)CC2)cc1 (configuration not stated),inactive: 101%
5,CCOC(=O)c1ccc(NP(C)(=O)Oc2ccc(OC)cc2)cc1 (configuration not stated),inactive: 105%
6,CCOP(C)(=S)SCC(=O)NC(C)C(=O)O (configuration not stated),inactive: 96.4%
7,CP(=O)(Nc1ccccn1)Oc1ccc(Cl)cc1 (configuration not stated),inactive: 99.9%
8,CCN(CC)CCCOC(=O)C(O)(c1ccccc1)c1ccccc1,inactive: 103%
9,O=[N+]([O-])c1ccc2c(c1)C=Nc1ccccc1O2,inactive: 112%
10,Cc1cccc(C)c1OP(C)(N)=O (configuration not stated),inactive: 105%
11,CC(C)(C)c1ccc(OP(C)(=O)Nc2ccc(SC(F)(F)F)cc2)cc1 (configuration not stated),inactive: 101%
12,Cc1ccc(NP(C)(=O)Oc2ccccc2)c(C)c1 (configuration not stated),inactive: 102%
13,COc1ccccc1OP(C)(=O)Nc1ccc(C)cc1 (configuration not stated),inactive: 92.7%
14,CCOC(=O)c1ccc(NP(C)(=O)Oc2ccccc2)cc1 (configuration not stated),inactive: 104%
15,Cc1cc(C)cc(OP(C)(N)=O)c1 (configuration not stated),inactive: 101%
16,COc1ccc(OP(C)(=O)Nc2cccc(F)c2)cc1 (configuration not stated),inactive: 98.4%
17,COc1ccccc1OP(C)(=O)Nc1cc(Cl)ccc1C (configuration not stated),inactive: 102%
18,Cc1cc(C)cc(OP(C)(=O)Nc2cccc(C(F)(F)F)c2)c1 (configuration not stated),inactive: 103%
19,COc1ccccc1OP(C)(=O)Nc1ccc(C)c(C)c1 (configuration not stated),inactive: 100%
20,COc1ccc(OP(C)(=O)Nc2ccccc2Br)cc1 (configuration not stated),inactive: 97.9%
21,Cc1nc2ccc3ccccc3c2o1.O=[N+]([O-])c1cc([N+](=O)[O-])c(O)c([N+](=O)[O-])c1,inactive: 99.7%

row,SMILES,response (percent of control binding)
1,CP(=O)(Nc1ccc(Cl)cc1Cl)Oc1ccccc1 (configuration not stated),inactive: 94.2%
2,CP(=O)(OCCOc1ccccc1)OCCOc1ccccc1,inactive: 99.5%
3,COc1ccccc1OP(C)(=O)Nc1ccc(Br)cc1 (configuration not stated),inactive: 97.3%
4,COc1ccc(OP(C)(=O)Nc2ccccn2)cc1 (configuration not stated),inactive: 113%
5,CN(C)CCOC(=O)C(O)(c1ccccc1)C1CCCC1 (configuration not stated),inactive: 103%
6,Cc1c(NP(C)(=O)Oc2ccc(C(C)C)cc2)c(=O)n(-c2ccccc2)n1C (configuration not stated),inactive: 98.7%
7,O=[N+]([O-])c1cc([N+](=O)[O-])c(Nc2ccccn2)c([N+](=O)[O-])c1,inactive: 106%
8,COc1ccccc1OP(C)(=O)Nc1ccc(C)cc1C (configuration not stated),inactive: 102%
9,CP(=O)(Nc1ccccn1)Oc1ccccc1 (configuration not stated),inactive: 104%
10,CCc1ccc(OP(C)(=O)O)cc1,inactive: 96.8%
11,COc1ccc(OP(C)(=O)Nc2ccc(Br)cc2)cc1 (configuration not stated),inactive: 81.2%
12,CCN(CC)CC(O)COC(=O)C(O)(c1ccccc1)C1CCCCC1 (configuration not stated),inactive: 102%
13,O=C(OCCCN1CCCC1)C(O)(c1ccccc1)C1CCCCC1 (configuration not stated),inactive: 98.3%
14,CCc1ccc(OP(C)(=O)Nc2cccnc2)cc1 (configuration not stated),inactive: 97.5%
15,CP(=O)(Oc1ccccc1)N1CCOC1=O (configuration not stated),inactive: 101%
16,COc1ccccc1OP(C)(=O)Nc1ccccc1Br (configuration not stated),inactive: 103%
17,CC(C)(C)c1ccc(OP(C)(=O)O)cc1,inactive: 94.7%
18,CP(=O)(Nc1ccc(Cl)cc1)Oc1ccc(F)cc1 (configuration not stated),inactive: 103%
19,CN(C)C(=O)c1c([N+](=O)[O-])cc([N+](=O)[O-])cc1[N+](=O)[O-],inactive: 96%
20,CCOC(=O)c1ccc(NP(C)(=O)Oc2ccc(Cl)cc2)cc1 (configuration not stated),inactive: 93.9%
21,CP(=O)(OC12CC3CC(CC(C3)C1)C2)OC12CC3CC(CC(C3)C1)C2,inactive: 102%

row,SMILES,response (percent of control binding)
1,COc1ccc(OP(C)(=O)Nc2cccc(Br)c2)cc1 (configuration not stated),inactive: 96.8%
2,CN(C)CCOC(=O)C(O)(c1ccccc1)C1CCCCC1 (configuration not stated),inactive: 102%
3,COc1ccc(NP(C)(=O)Oc2ccccc2OC)cc1 (configuration not stated),inactive: 106%
4,O=[N+]([O-])c1ccc(OP2(=O)COCCO2)cc1 (configuration not stated),inactive: 98.1%
5,O=[N+]([O-])c1cc([N+](=O)[O-])c(NCC2CCS(=O)(=O)C2)c([N+](=O)[O-])c1 (configuration not stated),inactive: 99.8%
6,Cc1cc(-c2cccc3ccccc23)c(C)cn1.O=[N+]([O-])c1cc([N+](=O)[O-])c(O)c([N+](=O)[O-])c1,inactive: 101%
7,CP(=O)(Nc1ccc(SC(F)(F)F)cc1)Oc1ccc(F)cc1 (configuration not stated),inactive: 102%
8,CCOP(C)(=S)SCC(=O)NC(C)(CC)C(=O)O (configuration not stated),inactive: 104%
9,CP(=O)(Nc1ccc2c(c1)OCCO2)Oc1ccccc1 (configuration not stated),inactive: 90.3%
10,Cc1ccccc1NP(C)(=O)Nc1ccccc1C,inactive: 101%
11,CP(=O)(Nc1ccccc1F)Oc1ccccc1 (configuration not stated),inactive: 89.3%
12,CC(C)c1ccc(OP(C)(=O)Nc2ccc(SC(F)(F)F)cc2)cc1 (configuration not stated),inactive: 99.6%
13,O=C(OC1CN2CCC1CC2)c1ccc([N+](=O)[O-])cc1 (configuration not stated),inactive: 101%
14,O=C(OCCN1CCN(CCOCc2ccccc2)CC1)C(O)(c1ccccc1)c1ccccc1,inactive: 99.8%
15,COc1ccc2c(c1O)-c1c(O)c(OC)cc3c1[C@H](C2)[N+](C)(C)CC3.O=[N+]([O-])c1cc([N+](=O)[O-])c([O-])c([N+](=O)[O-])c1[O-],inactive: 95.5%
16,CCOC(=O)c1ccc(NP(C)(=O)Oc2ccc(F)cc2)cc1 (configuration not stated),inactive: 98.2%
17,COc1ccc(OP(C)(=O)Nc2ccc(SC(F)(F)F)cc2)cc1 (configuration not stated),inactive: 101%
18,CP(=O)(Nc1ccccc1)Oc1ccc(F)cc1 (configuration not stated),inactive: 101%
19,CCCCCOc1ccc(NP(C)(=O)Oc2ccc(Cl)cc2Cl)cc1 (configuration not stated),inactive: 98.9%
